target: human mGluR2 (Homo sapiens (Human), UniProt Q14416); test: FLIPR Ca2+ mobilization antagonist assay in CHO dhfr- cells expressing recombinant human mGluR2 and Gα16; format: cell-based; details: antagonist response after addition of 2,500 nM glutamate, Fluo-4 AM, FLIPR384

The chains behind the UniProt entries cited, without tags or fusion partners. Residues count along the entry.
UniProt Q14416, 19-872: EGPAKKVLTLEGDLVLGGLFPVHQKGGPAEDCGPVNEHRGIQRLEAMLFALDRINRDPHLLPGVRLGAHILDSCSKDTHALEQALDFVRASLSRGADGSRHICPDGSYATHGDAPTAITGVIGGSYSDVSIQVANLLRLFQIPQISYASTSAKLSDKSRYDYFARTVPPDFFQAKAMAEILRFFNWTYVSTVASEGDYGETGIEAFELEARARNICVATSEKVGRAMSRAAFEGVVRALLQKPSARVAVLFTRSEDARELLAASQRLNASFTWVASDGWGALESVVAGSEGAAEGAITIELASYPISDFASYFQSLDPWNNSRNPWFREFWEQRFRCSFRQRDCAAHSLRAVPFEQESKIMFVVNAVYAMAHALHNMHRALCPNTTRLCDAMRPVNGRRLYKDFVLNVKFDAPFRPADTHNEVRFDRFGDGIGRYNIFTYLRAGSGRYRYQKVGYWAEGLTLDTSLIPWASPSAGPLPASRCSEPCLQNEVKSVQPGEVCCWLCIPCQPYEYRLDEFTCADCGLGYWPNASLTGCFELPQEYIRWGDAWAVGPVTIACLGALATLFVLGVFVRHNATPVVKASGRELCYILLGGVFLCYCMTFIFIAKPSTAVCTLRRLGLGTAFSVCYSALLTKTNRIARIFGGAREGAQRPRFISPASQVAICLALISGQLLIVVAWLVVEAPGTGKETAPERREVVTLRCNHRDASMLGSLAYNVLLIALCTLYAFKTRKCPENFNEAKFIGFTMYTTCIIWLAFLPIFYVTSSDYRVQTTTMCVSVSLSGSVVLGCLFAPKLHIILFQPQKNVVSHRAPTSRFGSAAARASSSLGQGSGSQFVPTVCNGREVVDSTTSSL

IC50	Compound
31 nM	COC(=O)c1cnn(Cc2ccc3c(-c4ccc(F)cc4)cc(C(N)=O)nc3c2)c1 [Example 3-24, methyl 1-{[2-carbamoyl-4-(4-fluorophenyl)quin-olin-7-yl]methyl}-1H-pyrazole-4-carboxylate]
46 nM	Cc1nc2ccccc2n1Cc1ccc2c(-c3ccc(F)cc3)cc(C(N)=O)nc2c1 [Example 3-42, 4-(4-fluorophenyl)-7-[(2-methyl-1H-benzimidazol-1-yl)methyl]quinoline-2-carboxamide]
34 nM	Cn1cc(-c2cc(C(N)=O)nc3cc(Cc4cnc(Cl)nc4)ccc23)cn1 [Example 6-15, 7-[(2-chloropyrimidin-5-yl)methyl]-4-(1-methyl-1H-pyrazol-4-yl)quinoline-2-carboxamide]
641 nM	Cc1cscc1-c1cc(C(N)=O)nc2ccccc12 [Example 1-13, 4-(4-methylthiophen-3-yl)quinoline-2-carboxamide]
38 nM	NC(=O)c1cc(-c2ccc(F)cc2)c2ccc(CN3C(=O)CNC3=O)cc2n1 [Example 2-8, 7-[(2,5-dioxoimidazolidin-1-yl)methyl]-4-(4-fluorophenyl)quinoline-2-carboxamide]
19 nM	Cc1ccc(CC(O)c2ccc3c(-c4ccc(F)cc4)cc(C(N)=O)nc3c2)cn1 (stereo not drawn) [Example 8-21, 4-(4-fluorophenyl)-7-[1-hydroxy-2-(6-methylpyridin-3-yl)ethyl]quinoline-2-carboxamide]
10 nM	COc1ncc(Cc2ccc3c(-c4ccc(F)cc4)cc(C(N)=O)nc3c2F)cn1 [Example 7-23, 8-fluoro-4-(4-fluorophenyI)-7-[(2-methoxypyrimidin-5-yl)methyl]quinoline-2-carboxamide]
38 nM	NC(=O)c1cc(-c2ccc(F)cc2)c2ccc(CN3CCn4cc(C(F)(F)F)nc4C3)cc2n1 [Example 4-49, 4-(4-fluorophenyl)-7-{[2-(trifluoromethyl)-5,6-dihydroimidazo[1,2-a]pyrazin-7(8H)-yl]methyl}quinoline-2-carboxamide]
91 nM	CCc1ncc(-c2cc(C(N)=O)nc3cc(CN4CCOC(C(F)(F)F)C4)ccc23)s1 (stereo not drawn) [Example 4-74, 4-(2-ethyl-1,3-thiazol-5-yl)-7-{[2-(trifluoromethyl)morpholin-4-yl]methyl}quinoline-2-carboxamide]
398 nM	N#Cc1cc(-c2ccc(F)cc2)c2ccc(CN3C(=O)COC3=O)cc2n1 [Example 2-17, 7-[(2,4-dioxo-1,3-oxazolidin-3-yl)methyl]-4-(4-fluorophenyl)quinoline-2-carbonitrile]
63 nM	NC(=O)c1cc(-c2ccc(F)cc2)c2ccc(Cn3cc(C(O)C4CC4)cn3)cc2n1 (stereo not drawn) [Example 3-10, 7-({4-[Cyclopropyl(hydroxy)methyl]-1H-pyrazol-1-yl}methyl)-4-(4-fluorophenyl)quinoline-2-carboxamide]
393 nM	Cc1ccc2c(-c3ccccc3F)cc(C(N)=O)nc2c1 [Example 1-28, 4-(2-fluorophenyl)-7-methylquinoline-2-carboxamide]
76 nM	Cn1cc(-c2cc(C(N)=O)nc3cc(Cc4cnc(F)nc4)ccc23)cn1 [Example 6-16, 7-[(2-fluoropyrimidin-5-yl)methyl]-4-(1-methyl-1H-pyrazol-4-yl)quinoline-2-carboxamide]
16 nM	CCC(O)(c1cn(Cc2ccc3c(-c4ccc(OC)c(F)c4)cc(C(N)=O)nc3c2)cn1)C(F)(F)F (stereo not drawn) [Example 3-49, 4-(3-fluoro-4-methoxyphenyl)-7-({4-[1-hydroxy-1-(trifluoromethyl)propyl]-1H-imidazol-1-yl}methyl)quinoline-2-carboxamide]
24 nM	NC(=O)c1cc(-c2ccc(F)cc2)c2ccc(CN3CCOC(C(F)(F)F)C3)cc2n1 (stereo not drawn) [Example 4-46, 4-(4-fluorophenyl)-7-{[2-(trifluoromethyl)morpholin-4-yl]methyl}quinoline-2-carboxamide]
118 nM	NC(=O)c1cc(-c2ccc(F)cc2)c2ccc(CN3CCC(O)(O)CC3)cc2n1 [Example 4-41, 7-[(4,4-dihydroxypiperidin-1-yl)methyl]-4-(4-fluorophenyl)quino-line-2-carboxamide]
588 nM	CN1CC(=O)N(Cc2ccc3c(-c4ccc(F)cc4)cc(C#N)nc3c2)C1=O [Example 2-19, 4-(4-fluorophenyl)-7-[(3-methyl-2,5-dioxoimidazolidin-1-yl)methyl]quinoline-2-carbonitrile]
15 nM	NC(=O)c1cc(-c2cnn(CF)c2)c2ccc(CN3CCO[C@H](C(F)(F)F)C3)cc2n1 [Example 4-85, 4-[1-(fluoromethyl)-1H-pyrazol-4-yl]-7-{[(2S)-2-(trifluoromethyl)morpholin-4-yl]methyl}quinoline-2-carboxamide]
73 nM	NC(=O)c1cc(-c2ccc(F)cc2)c2ccc(Cn3c(C4CC4)nc4ccccc43)cc2n1 [Example 3-39, 7-[(2-cyclopropyl-1H-benzimidazol-1-yl)methyl]-4-(4-fluorophenyl)quin-oline-2-carboxamide]
100 nM	NC(=O)c1cc(-c2ccc(F)cc2Cl)c2ccccc2n1 [Example 1-19, 4-(2-chloro-4-fluorophenyl)quinoline-2-carboxamide]

IC50	Compound
82 nM	CON(C)Cc1ccc2c(-c3ccc(F)cc3)cc(C(N)=O)nc2c1 [Example 4-29, 4-(4-fluorophenyl)-7-{[methoxy(methyl)amino]methyl}quin-oline-2-carboxamide]
43 nM	NC(=O)c1cc(-c2ccc(F)cc2)c2ccc(Cn3cnc(Br)c3)cc2n1 [Example 3-25, 7-[(4-bromo-1H-imidazol-1-yl)methyl]-4-(4-fluorophenyl)quin-oline-2-carboxamide]
40 nM	CCOC(=O)c1cnn(Cc2ccc3c(-c4ccc(F)cc4)cc(C(N)=O)nc3c2)c1 [Example 3-21, ethyl 1-{[2-carbamoyl-4-(4-fluorophenyl)quin-olin-7-yl]methyl}-1H-pyrazole-4-carboxylate]
67 nM	CCC(O)(c1cn(Cc2ccc3c(-c4ccc(OC)c(C)c4)cc(C(N)=O)nc3c2)cn1)C(F)(F)F (stereo not drawn) [Example 3-47, 7-({4-[1-hydroxy-1-(trifluoromethyl)propyl]-1H-imidazol-1-yl}methyl)-4-(4-methoxy-3-methylphenyl) quinoline-2-carboxamide]
82 nM	NC(=O)c1cc(-c2ccc(F)cc2)c2ccc(CN3CCNC(=O)C3)cc2n1 [Example 4-28, 4-(4-fluorophenyl)-7-[(3-oxopiperazin-1-yl)methyl]quinoline-2-carboxamide]
13 nM	Cn1cc(-c2cc(C(N)=O)nc3c(F)c(CN4CCCC(C(F)(F)F)C4)ccc23)cn1 (stereo not drawn) [Example 7-36, 8-fluoro-4-(1-methyl-1H-pyrazol-4-yl)-7-{[3-(trifluoromethyl)piperidin-1-yl]methyl}quinoline-2-carboxamide]
8 nM	C[C@H]1CO[C@@H](C(F)(F)F)CN1Cc1ccc2c(-c3cnn(C)c3)cc(C(N)=O)nc2c1 [Example 4-91, 4-(1-methyl-1H-pyrazol-4-yl)-7-{[(2R,5S)-5-methyl-2-(trifluoromethyl)morpholin-4-yl]methyl}quinoline-2-carboxamide]
89 nM	NC(=O)c1cc(-c2ccc(F)cc2)c2ccc(Cn3c(C4CCCC4)nc4ccccc43)cc2n1 [Example 3-41, 7-[(2-cyclopentyl-1H-benzimidazol-1-yl)methyl]-4-(4-fluorophenyl)quin-oline-2-carboxamide]
114 nM	Cn1cc(-c2cc(C(N)=O)nc3cc(CN4CCC(C(F)(F)F)CC4)ccc23)cn1 [Example 4-70, 4-(1-methyl-1H-pyrazol-4-yl)-7-{[4-(trifluoromethyl)piperidin-1-yl]methyl}quinoline-2-carboxamide]
14 nM	COc1ncc(Cc2ccc3c(-c4ccc(F)cc4)cc(C(N)=O)nc3c2)cn1 [Example 6-11, 4-(4-fluorophenyl)-7-[(2-methoxypyrimidin-5-yl)methyl] quinoline-2-carboxamide]
149 nM	Cn1cc(-c2cc(C(N)=O)nc3cc(CN4CCCCC45CC5)ccc23)cn1 [Example 4-132, 7-(4-azaspiro[2.5]oct-4-ylmethyl)-4-(1-methyl-1H-pyrazol-4-yl)quinoline-2-carboxamide]
39 nM	Cc1cc(Cc2ccc3c(-c4cnn(C)c4)cc(C(N)=O)nc3c2F)cc(C)n1 [Example 7-34, 7-[(2,6-dimethylpyridin-4-yl)methyl]-8-fluoro-4-(1-methyl-1H-pyrazol-4-yl)quinoline-2-carboxamide]
118 nM	NC(=O)c1cc(-c2ccc(F)cc2)c2ccc(CN3CC[C@@H](F)C3)cc2n1 [Example 4-26, 4-(4-fluorophenyl)-7-{[(3R)-3-fluoropyrrolidin-1-yl]methyl}quinoline-2-carboxamide]
261 nM	NC(=O)c1cc(-c2cnc(C3CC3)s2)c2ccc(CN3CCOC(C(F)(F)F)C3)cc2n1 (stereo not drawn) [Example 4-76, 4-(2-cyclopropyl-1,3-thiazol-5-yl)-7-{[2-(trifluoromethyl)morpholin-4-yl]methyl}quinoline-2-carboxamide]
64 nM	NC(=O)c1cc(-c2ccc(F)cc2)c2ccc(Cn3ccnc3)cc2n1 [Example 3-29, 4-(4-fluorophenyl)-7-(1H-imidazol-1-ylmethyl)quinoline-2-carboxamide]
13 nM	Cn1cc(-c2cc(C(N)=O)nc3cc(CN4CCSC(C5CC5)C4)ccc23)cn1 (stereo not drawn) [Example 4-16, 7-((2-cyclopropylthiomorpholino)methyl)-4-(1-methyl-1H-pyrazol-4-yl)quinoline-2-carboxamide]
30 nM	Cn1cc(-c2cc(C(N)=O)nc3c(F)c(Cc4ccc(C5CC5)nc4)ccc23)cn1 [Example 7-37, 7-[(6-cyclopropylpyridin-3-yl)methyl]-8-fluoro-4-(1-methyl-1H-pyrazol-4-yl)quinoline-2-carboxamide]
214 nM	Cn1cc(-c2cc(C(N)=O)nc3c(F)c(CN4C(=O)NC(C)(C)C4=O)ccc23)cn1 [Example 7-32, 7-[(4,4-dimethyl-2,5-dioxoimidazolidin-1-yl)methyl]-8-fluoro-4-(1-methyl-1H-pyrazol-4-yl)quinoline-2-carboxamide]
47 nM	CC1C(=O)N(Cc2ccc3c(-c4ccc(F)cc4)cc(C(N)=O)nc3c2)C(=O)C1(C)C (stereo not drawn) [Example 2-22, 4-(4-fluorophenyl)-7-[(3,3,4-trimethyl-2,5-dioxopyrrolidin-1-yl)methyl]quinoline-2-carboxamide]

Source: patent US9278960B2, “Quinoline carboxamide and quinoline carbonitrile derivatives as mGluR2-negative allosteric modulators, compositions, and their use” (Merck Sharp & Dohme Corp., priority 2011, dated 2016)
